{
  "source": "patent US9028858B2",
  "about": "(Coloplast A/S, priority 2003, dated 2015)",
  "conditions": "pH 4, no stabilizer",
  "note": "Like-named read-outs stand apart in the source and are kept apart here.",
  "data": [
    {"smiles": "OO", "note": "[Std H2O2, hydrogen peroxide]", "values": [
      {"measurement": "Calculated degraded amount of H2O2 (%) after 2 years storage at 23° C.", "setting": "0 mM citrate", "result": 15.4, "unit": "%"},
      {"measurement": "Calculated degraded amount of H2O2 (%) after 2 years storage at 23° C.", "setting": "25 mM citrate", "result": 39.2, "unit": "%"}
    ]}
  ]
}
